Values quoted from earlier work, collected in US4883666A, “Controlled drug delivery system for treatment of neural disorders” (Massachusetts Institute of Technology, priority 1987, dated 1989).

Test system: multiple sclerosis
Settings: administered directly into the spinal column; cited from earlier work

B1: beta interferon: beta interferon to reduce the frequency and severity of multiple sclerosis attacks (protein, UniProt P01574 22-187, looked up)
Interferon beta: MSYNLLGFLQRSSNFQCQKLLWQLNGRLEYCLKDRMNFDIPEEIKQLQQFQKEDAALTIYEMLQNIFAIFRQDSSSTGWNETIVENLLANVYHQINHLKTVLEEKLEKEDFTRGKLMSSLHLKRYYGRILHYLKAKEYSHCAWTIVRVEILRNFYFINRLTGYLRN
Q: For B1, which “frequency and severity of multiple sclerosis attacks” value is on record?
A: reduce the frequency and severity of multiple sclerosis attacks
